Results from patent US20220347267A1, “METHODS TO IMPROVE PATIENT RESPONSE TO IMMUNE CHECKPOINT INHIBITORS AND FUNCTIONAL TESTS TO PREDICT RESPONSE” (Biomarker Strategies, LLC, priority 2019, published 2022).

Key:
Format in all cases: cell-based, human
BT549 cells = experiment: PD-L1 western blot after modulators (EM and MTAs); settings: Breast BT549, 30 minutes, 3 hours, 24 hours
Source text: (§1) Cell lines were acquired from ATCC, Sigma, or DSMZ. Human non-small cell lung carcinoma (NSCLC) cell lines H292 (ATCC no. CRL-1848.), H1299 (ATCC no. CRL-5803), H520 (ATCC no. CRL-5811), CALU6 (ATCC no. HTB-56), H1975 (ATCC no. CRL-5908), H460 (ATCC no. HTB-177), H2126 (ATCC no. CCL-256), H1650 (ATCC no. CRL-5883), and H2087 (ATCC no. CRL-5922) were used for this experiment along with head and neck squamous cell carcinoma (HNSCC) cell lines BHY (DSMZ ACC 404), CAL27 (ATCC no. CRL-2095), KYSE410 (Sigma), and A253 (ATCC no. HTB-41), melanoma cell lines A375 (ATCC no. CRL-1619), COL0853 (Sigma), and MM127 (Sigma) pancreatic cancer cell lines BXPC3 (ATCC no. CRL-1687), colorectal cancer cell lines HTB38 (ATCC no. HT-29), HCT116 (ATCC no. CCL-247EMT), and breast cancer cell lines BT549 (ATCC no. HTB-122), BT20 (ATCC no. HTB-19), and T47D (ATCC no. HTB-133). Cells were maintained in manufacturer-recommended conditions at 37° C. inside humidified 5% CO2 incubators. Sub-cultivation and harvesting for all cell lines were performed using Accutase (GIBCO Life Technologies; cat. no. A1110501) at 37° C. for 10 minutes. Cell viability was measured using trypan blue exclusion staining in conjunction with the Countess II Automated Cell Counter (Thermo Fischer Scientific; cat. no. AMQAX1000). Measurements were made in duplicate and the average number of viable cells was recorded prior to experiments.
(§2) Enhancer Molecule and Therapies: IFNγ, (10 ng/ml; Sigma Aldrich, cat.no 11040596001), TNFα (10 ng/ml; BD Biosciences cat. no. 554618), Osimertinib (100 ng/ml; Selleckchem cat.no. S7297), Everolimus (100 ng/ml; Selleckchem cat.no S1120), GSK458 (10 ng/ml; Selleckchem cat. no. S2658), TNFb (50 ng/ml; Sigma Aldrich cat. no.), GSK795 (1,000 ng/ml; Selleckchem cat. no. S7492), IL-12 (50 ng/ml; Sigma Aldrich SRP3073), GM-CSF (50 ng/ml; Sigma Aldrich cat. no. G5035), IL-1a (1 ng/ml; Sigma Aldrich cat. no. 12778-), IL-6 (50 ng/ml; Sigma Aldrich), IL-17 (100 ng/ml; Sigma Aldrich cat. no. SRP3080), TGFb (1 ng/ml; Sigma Aldrich cat. no. T7039), and IL-10 (50 ng/ml; Sigma Aldrich cat. no. […]
(§3) To determine the effects of the aforementioned molecules on the modulation of PD-L1, we selected various NSCLC, HNSCC, breast cancer, melanoma, colorectal cancer, and pancreatic cancer cell lines as examples. Other diseases or cell lines could be used readily as could more complex samples such as cells isolated from xenografts and clinical samples. […] Other conditions can be readily used, such as processing on automated systems such as SnapPath. […] Aliquots of protein lysates were prepared and then stored at −80° C. until protein quantification and Western blot analysis was to be conducted. […]

H460 cells = experiment: PD-L1 western blot after modulators (EM and MTAs); settings: NSCLC H460, 30 minutes, 3 hours, 24 hours
Source text: as §1, §2, §3

H292 cells = experiment: PD-L1 western blot after modulators (EM and MTAs); settings: NSCLC H292, 30 minutes, 3 hours, 24 hours
Source text: as §1, §2, §3

H1650 cells = experiment: PD-L1 western blot after modulators (EM and MTAs); settings: NSCLC H1650, 30 minutes, 3 hours, 24 hours
Source text: as §1, §2, §3

[1] = test system: various NSCLC, HNSCC, breast cancer, melanoma, colorectal cancer, and pancreatic cancer cell lines; experiment: PD-L1 western blot after modulators, summary over all samples; settings: depending on the sample, summary of Table 3
Source text: as §1, with “CRL-1687), colorectal cancer cell lines HTB38 (ATCC no. HT-29), HCT116 (ATCC no. CCL-247EMT), and breast cancer cell lines BT549 (ATCC no. HTB-122), BT20 (ATCC no. HTB-19), and T47D (ATCC no. HTB-133). Cells were maintained in manufacturer-recommended conditions at 37° C. inside humidified 5% CO2 incubators. Sub-cultivation and harvesting for all cell lines were performed using Accutase (GIBCO Life Technologies; cat. no. A1110501) at 37° C. for 10 minutes.” left out, “experiments. […]” for “experiments.”
To determine the effects of the aforementioned molecules on the modulation of PD-L1, we selected various NSCLC, HNSCC, breast cancer, melanoma, colorectal cancer, and pancreatic cancer cell lines as examples. Other diseases or cell lines could be used readily as could more complex samples such as cells isolated from xenografts and clinical samples. […] Other conditions can be readily used, such as processing on automated systems such as SnapPath. […]

In the case of “TNFa: Recombinant human TNF-a, modulator (10 ng/ml; BD Biosciences)”, the “PD-L1 Response” value (BT549 cells) is reported as “Up”, the “PD-L1 Response” value (H460 cells) is reported as “Up” and the “PD-L1 Response” value (H292 cells) is reported as “Up”. For the same substance, the “PD-L1 Response” value (H1650 cells) was “Up” and the “regulation of PD-L1 across samples” value [1] was “only led to upregulation”.
